By Kd is commonly meant the concentration at which binding is half-saturated.

The target in test [1] is BRD4's first bromodomain, BRD4(1) (Homo sapiens, UniProt O60885).
The target in a further test is Bromodomain 4 (BRD4) (Homo sapiens, UniProt O60885). The test can be described thus: Differential scanning fluorimetry (DSF), thermal stabilisation of BRD4. Conditions: versus DMSO and JQ1R controls. For orientation: DSF heats the sample and reads unfolding from a dye or from intrinsic fluorescence.
In test [2] the test system is genome of SKMEL5 melanoma cells. Briefly: In vitro Chem-Seq of bio-JQ1 compared with Brd4 ChIP-Seq. Conditions: DMSO as background. As to the method: Human SK-MEL-5 cells were grown to 80% confluency with a final count of 1-2×10^8 cells for each location analysis reaction. Cells were chemically crosslinked by the addition of one-tenth volume of fresh 11% formaldehyde solution for 15 minutes at room temperature. Cells were harvested using a silicon scraper, centrifuged and the derived pellets washed three times with 1×PBS. Cell pellets were flash frozen in liquid nitrogen and stored at −80° C. prior to use.
Cells were resuspended, lysed in lysis buffers and sonicated to solubilize and shear crosslinked DNA. Sonication conditions vary depending on cells, culture conditions, crosslinking, equipment, and drug or drug candidate. A Misonix Sonicator 3000 was used and sonication was performed at power 8 for 10×30 second pulses (60 second pause between pulses). Samples were kept on ice at all times.
The resulting whole cell extract was incubated overnight at 4° C. (affinity purification) with 100 μl of Streptavidin Dynal (MyOne Streptavidin T1) magnetic beads that had been pre-incubated with JQ1 as follows: 5 ul of 10 mM JQ1/DMSO solution were mixed with 100 ul of Strepavidin Dynal bead suspension and incubated overnight (o.n.). Drug-bound beads were washed four times with BSA blocking solution to remove unbound drug.
The affinity purification was allowed to proceed overnight. […]

Turning to `Cc1sc2c(c1C)C(c1ccc(Cl)cc1)=N[C@@H](CC(=O)NCCCOCCOCCOCCCNC(=O)CCCC[C@@H]1SC[C@@H]3NC(=O)N[C@@H]31)c1nnc(C)n1-2`, the Kd in test [1] amounted to 109 nM. Besides, on Bromodomain 4 (BRD4), the “Stabilisation of BRD4 against thermal unfolding (DSF)” value was “bind to BRD4 to make it more stable”. In test [2], the “Overlap of bio-JQ1 Chem-Seq occupancy with genome-wide Brd4 ChIP-Seq occupancy” value was “high degree of overlap”.

The record behind these values is patent US20150167062A1, “Genome-wide Method of Assessing Interactions Between Chemical Entities And Their Target Molecules” (Whitehead Institute for Biomedical Research, priority 2012, published 2015).
